Assay results taken from ChEMBL document CHEMBL5727521, “Compounds as indoleamine 2,3-dioxygenase inhibitors” (2020).

Protein sequences, listed by entry. Tags and fused reporters are not part of them.
UniProt P14902, whole entry, looked up: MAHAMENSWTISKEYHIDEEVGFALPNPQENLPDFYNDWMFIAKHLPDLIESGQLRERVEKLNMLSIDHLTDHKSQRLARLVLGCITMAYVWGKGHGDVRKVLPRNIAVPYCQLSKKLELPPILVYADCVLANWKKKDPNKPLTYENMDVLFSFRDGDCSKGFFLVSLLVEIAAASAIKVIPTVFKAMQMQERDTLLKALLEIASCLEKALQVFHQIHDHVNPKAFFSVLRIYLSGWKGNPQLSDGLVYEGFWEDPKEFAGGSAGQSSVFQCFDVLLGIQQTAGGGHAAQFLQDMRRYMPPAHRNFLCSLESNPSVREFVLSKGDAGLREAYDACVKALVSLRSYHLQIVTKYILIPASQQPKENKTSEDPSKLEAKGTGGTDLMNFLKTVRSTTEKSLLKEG

Biological target: Indoleamine 2,3-dioxygenase 1 (Homo sapiens, UniProt P14902)

`CCOC(=O)CNP(=O)(CC)NCCSc1nonc1/C(=N/O)Nc1ccc(F)c(Br)c1` (stereo unspecified) was tested, and the IC50 was 2680 nM.
